Literature values as cited in patent publication US20230062537A1, “Therapy of oxygen pulses for treating neurodegenerative disorders such as Parkinson Disease (PD), Alzheimer’s Disease (AD), Amiotrophic Lateral Sclerosis (ALS) or Motor Neuron Disease (MND) and other dementias, and Lymphedema, Arthritis and Depression” (priority 2021, published 2023).

System: MND
Details: clinical trials; cited from earlier work

Nc1nc2ccc(OC(F)(F)F)cc2s1 [riluzole]
survival: prolong survival by several months
